Test results reported in paper PMC9837035 (Nature Communications, 2023).

Columns and labels:
[1] = test system: γ-globin proteins in CD34+-derived cells; experiment: γ-globin protein quantification by LC-MS/MS in CD34+-derived cells; assay type: cell-based, human
Method: The extraction and digestion of proteins were performed according to the method reported in a previous paper. Briefly, collected cell pellets, 120 μL of water, 12.5 μL of acetonitrile, and 12.5 μL of 1% formic acid were mixed and sonicated. The mixture was centrifuged to remove the cell debris and the supernatant was collected. Ten microliters of supernatant was reduced by dithiothreitol, alkylated with iodoacetamide, and digested with trypsin/Lys-C mix (Promega) in 50 mM ammonium bicarbonate (pH 8.0) (Sigma) at 37 °C overnight. For protein quantification analysis by LC–MS/MS, 10 pmol of stable isotope–labeled peptides (synthesized by the Support Unit for Bio-Material Analysis, RIKEN Center for Brain Science) were added to the digested sample as an internal standard. The digested sample was stored at −25 °C until analysis. The trypsinized sample was applied to an EASY-nLC 1000 liquid chromatograph (Thermo Fisher Scientific) and Q-Exactive mass spectrometer (Thermo Fisher Scientific) equipped with a nanospray ion source (Thermo Fisher Scientific). The peptides were separated with a NANO–HPLC Capillary Column C18 (0.075 mm i.d. × 150 mm, 3 µm; Nikkyo Technos) using a 120 min gradient at a flow rate of 300 nL/min: 5–35% B in 100 min, and then 35–65% B in 20 min (solvent A, 0.1% formic acid; solvent B, acetonitrile/0.1% formic acid). The resultant MS and MS/MS data were searched against the Swiss-Prot database (2020_01) using the MASCOT software (Matrix Science). The search parameters were as follows: enzyme, trypsin; max. missed cleavages, 1; fixed modifications, carbamidomethyl (Cys); variable modifications, oxidation (Met); peptide mass tolerance, 6 ppm; fragment mass tolerance, 20 mmu; min. peptide length, 4. The proteins were considered to be identified when they have at least one peptide with a significant MASCOT score (p < 0.05).
Protein quantification was performed using Vanquish UHPLC (Thermo Fisher Scientific) and TSQ-Vantage EMR (Thermo Fisher Scientific) with a HESI-II ion source (Thermo Fisher Scientific) in multiple reaction monitoring (MRM) mode. MRM transitions for target peptides and internal standards are summarized in Supplementary Table 12. The peptides were separated with a YMC-Triart C18 column (2.0 mm × 50 mm, 1.9 µm; YMC) at 40 °C using a linear gradient at a flow rate of 0.4 mL/min: initially 2% B for 1 min, and then 2–37% B for 4 min (solvent A, 0.1% formic acid; solvent B, acetonitrile). Pinpoint software (Thermo Fisher Scientific) was used for peak area calculation.

[2] = target: T1, NSD2 (E1099K) (Homo sapiens, UniProt O96028, E1099K); experiment: biochemical
T1 sequence (O96028 1-1365 E1099K): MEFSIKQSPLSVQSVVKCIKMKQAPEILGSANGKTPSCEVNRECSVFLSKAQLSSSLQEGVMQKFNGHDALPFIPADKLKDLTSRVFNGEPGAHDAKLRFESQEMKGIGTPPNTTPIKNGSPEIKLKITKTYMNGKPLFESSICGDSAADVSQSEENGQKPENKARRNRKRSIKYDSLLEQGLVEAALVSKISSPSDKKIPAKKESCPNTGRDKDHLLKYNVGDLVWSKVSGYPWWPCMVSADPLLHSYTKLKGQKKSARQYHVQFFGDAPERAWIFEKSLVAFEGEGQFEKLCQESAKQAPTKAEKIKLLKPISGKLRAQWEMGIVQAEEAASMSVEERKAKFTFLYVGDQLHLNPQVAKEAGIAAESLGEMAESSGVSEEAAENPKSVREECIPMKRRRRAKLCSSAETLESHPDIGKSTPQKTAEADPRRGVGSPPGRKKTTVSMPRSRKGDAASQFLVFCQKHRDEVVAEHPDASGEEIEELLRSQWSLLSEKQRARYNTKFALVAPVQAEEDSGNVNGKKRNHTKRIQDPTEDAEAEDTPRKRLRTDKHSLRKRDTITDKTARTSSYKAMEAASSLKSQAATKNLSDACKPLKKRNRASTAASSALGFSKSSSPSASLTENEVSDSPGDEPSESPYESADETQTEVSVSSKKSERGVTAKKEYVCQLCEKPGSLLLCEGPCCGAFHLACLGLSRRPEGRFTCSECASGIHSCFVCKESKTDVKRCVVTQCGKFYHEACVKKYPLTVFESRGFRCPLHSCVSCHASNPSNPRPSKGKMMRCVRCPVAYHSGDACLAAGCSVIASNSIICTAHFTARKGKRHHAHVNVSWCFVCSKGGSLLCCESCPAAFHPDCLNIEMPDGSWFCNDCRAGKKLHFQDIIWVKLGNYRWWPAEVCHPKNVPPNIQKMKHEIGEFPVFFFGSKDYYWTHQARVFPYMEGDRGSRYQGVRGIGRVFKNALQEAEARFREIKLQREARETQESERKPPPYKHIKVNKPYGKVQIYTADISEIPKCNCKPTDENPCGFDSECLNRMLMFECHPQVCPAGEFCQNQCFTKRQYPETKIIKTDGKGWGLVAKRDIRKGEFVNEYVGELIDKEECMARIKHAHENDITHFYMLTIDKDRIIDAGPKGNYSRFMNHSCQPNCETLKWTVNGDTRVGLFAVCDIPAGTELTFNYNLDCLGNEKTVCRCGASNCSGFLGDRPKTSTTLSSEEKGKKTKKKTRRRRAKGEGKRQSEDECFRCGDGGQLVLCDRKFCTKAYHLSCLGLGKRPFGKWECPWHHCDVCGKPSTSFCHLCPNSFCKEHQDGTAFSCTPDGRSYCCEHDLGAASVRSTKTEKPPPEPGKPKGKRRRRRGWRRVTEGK

SMILES | Percentage of γ-globin proteins relative to total β-like globin proteins ([1]; day 11, 0.01 μM) | Percentage of γ-globin proteins relative to total β-like globin proteins ([1]; day 11, 0.03 μM) | Percentage of γ-globin proteins relative to total β-like globin proteins ([1]; day 11, 0.1 μM) | Percentage of γ-globin proteins relative to total β-like globin proteins ([1]; day 11, 0.3 μM) | Percentage of γ-globin proteins relative to total β-like globin proteins ([1]; day 11, 1 μM) | Percentage of γ-globin proteins relative to total β-like globin proteins ([1]; day 11, 3 μM) | IC50 [2]
Cc1c(C(=O)NC(CCC2CC2)C(=O)Nc2ccc(C#N)cc2)[nH]c2c1C(=O)CC(C)(C)C2 (stereo not shown) [RK-701] | 3.7% and 10.4% and 12.1% | 6.7% and 12.5% and 12.3% | 18.1% and 27.6% and 23.5% | 20.3% and 30.5% and 25.7% | 41.5% and 38.1% and 29.6% | 24.8% and 34.5% and 30.7% | 
Nc1ncnc2c1ncn2[C@@H]1O[C@H](CSCC[C@H](N)C(=O)O)[C@@H](O)[C@H]1O [SAH, S-(5'-Adenosyl)-L-homocysteine, reference compound] |  |  |  |  |  |  | 6.51 µM

Several values for one entry are separate records, joined by “and”; a condition that tells them apart may be missing. Equal values may be shown once.
